# Assay results taken from article PMC6884456, “Supreme activity of gramicidin S against resistant, persistent and biofilm cells of staphylococci and enterococci” (Scientific Reports, 2019).
# Legend:
# Conditions in all cases: Mueller-Hinton broth, 22 h + 2 h resazurin, 37 °C, 5% CO2, three parallels
# S. aureus MRSA538 SCV = test system: S. aureus MRSA538 SCV
# Description: (§1) For the determination of MIC, the standard broth microdilution procedure[45] was used with a slight modification. Since the peptide stock solutions were prepared in 50% ethanol, the first rows of the 96-well microtiter plates were filled with 50 µl of 2 × concentrated Mueller-Hinton broth to reestablish the normal broth concentration after the addition of 50 µl peptide solutions. The MIC was determined as the lowest concentration that inhibited bacterial growth, judging from bacterial respiration in three parallels for each antibiotic. After incubation of the plates for 22 hours, the redox indicator resazurin (Sigma-Aldrich) was added to the wells (20 µl, 80 µM). The plates were incubated another 2 hours at 37 °C and 5% CO2. Respiration was determined as the difference in the absorption at 570 nm to 600 nm, using a microplate reader FLASHScan 550 (Analytik Jena).
# S. aureus MRSA9 SCV = test system: S. aureus MRSA9 SCV
# Description: as §1
# S. aureus MRSA8 SCV = test system: S. aureus MRSA8 SCV
# Description: as §1
# S. aureus MRSA9 = assay type: cell-based, Staphylococcus aureus
# E. faecalis TRE1 = assay type: cell-based, Enterococcus faecalis
# E. faecium VRE2 = assay type: cell-based, Enterococcus faecium
# E. faecalis TRE4 = assay type: cell-based, Enterococcus faecalis
# E. faecium VRE1 = assay type: cell-based, Enterococcus faecium
# S. aureus DSM 1104 = assay type: cell-based, Staphylococcus aureus
# E. faecalis TRE2 = assay type: cell-based, Enterococcus faecalis
# S. aureus DSM 1104 SCV = assay type: cell-based, Staphylococcus aureus
# S. aureus MRSA4 = assay type: cell-based, Staphylococcus aureus
# E. faecalis DSM 2570 = assay type: cell-based, Enterococcus faecalis
# E. faecalis WW6 = assay type: cell-based, Enterococcus faecalis
# E. faecalis WW4 = assay type: cell-based, Enterococcus faecalis
# S. aureus MRSA3 = assay type: cell-based, Staphylococcus aureus
compound,measurement,setting,value
"CC[C@H](C)[C@H](NC(=O)[C@H](CCCNC(=N)N)NC(=O)[C@@H](NC(=O)[C@H](C)NC(=O)[C@@H](NC(=O)[C@@H](NC(=O)[C@H](CC(C)C)NC(=O)[C@H](CCCNC(=N)N)NC(=O)[C@@H](N)C(C)C)[C@@H](C)CC)C(C)C)C(C)C)C(=O)N[C@@H](Cc1c[nH]c2ccccc12)C(=O)N[C@@H](CCCNC(=N)N)C(=O)N[C@@H](CCCNC(=N)N)C(N)=O [IDR, IDR-1018]",MIC,S. aureus MRSA538 SCV,64 (42) µg/ml
same,MIC,S. aureus MRSA9 SCV,64 (42) µg/ml
same,MIC,S. aureus MRSA8 SCV,64 (42) µg/ml
same,MIC,S. aureus MRSA9,32 (21) µg/ml
same,MIC,E. faecalis TRE1,32 (21) µg/ml
same,MIC,E. faecium VRE2,8 (5) µg/ml
same,MIC,E. faecalis TRE4,16 (10) µg/ml
same,MIC,E. faecium VRE1,16 (10) µg/ml
same,MIC,S. aureus DSM 1104,32 (21) µg/ml
same,MIC,E. faecalis TRE2,32 (21) µg/ml
same,MIC,S. aureus DSM 1104 SCV,64 (42) µg/ml
same,MIC,S. aureus MRSA4,32 (21) µg/ml
same,MIC,E. faecalis DSM 2570,32 (21) µg/ml
same,MIC,E. faecalis WW6,32 (21) µg/ml
same,MIC,E. faecalis WW4,32 (21) µg/ml
same,MIC,S. aureus MRSA3,64 (42) µg/ml
